This passage reports growth rescue (activation) and Potency results from PubChem BioAssay AID652104 (National Center for Advancing Translational Sciences (NCATS), 2013).

The entries are a selection whose mix differs from that of the whole data set. Inconclusive results are not listed. A call without a number means that no potency is given here. The source made the active and inactive calls. Calls come from the whole dose curve; as a rule, active = well fitted activation curve with a large enough effect; inconclusive = small, poorly fitted or top-dose-only effect, or another doubt; inactive = no such curve, though single readings can be large or run the other way.
Potency is the fitted concentration of half-maximal effect.

The test in a line: qHTS of TDP-43 Inhibitors. Note: nearly all actives have a fitted effect of over 50% in size. The note with it: TDP-43 expressing yeast growth rescue, BacTiter-Glo, 24 h; series mostly up to 46.1 µM.
For the compound `O=[N+]([O-])c1ccc2c(c1)C=Nc1ccccc1O2`, the growth rescue (activation) is inactive: -19.7% [at 0.397 µM]. For `CC(C)(C)c1ccc(OP(C)(=O)Nc2ccc(SC(F)(F)F)cc2)cc1` (stereo unspecified), the growth rescue (activation) entry was “inactive”. As for `Cc1cccc(C)c1OP(C)(N)=O` (stereo unspecified), the growth rescue (activation) entry was “inactive”. For the compound `O=[N+]([O-])c1cc([N+](=O)[O-])c(Nc2cccnc2)c([N+](=O)[O-])c1`, the growth rescue (activation) entry is “inactive”. In the case of `Cc1cc(C)cc(OP(C)(N)=O)c1` (stereo unspecified), the growth rescue (activation) result was “inactive”. For `COc1ccccc1OP(C)(=O)Nc1cc(Cl)ccc1C` (stereo unspecified), the growth rescue (activation) entry is “inactive”. On to `COc1ccc(OP(C)(=O)Nc2cccc(F)c2)cc1` (stereo unspecified), for which the growth rescue (activation) entry was “inactive”. As for `COc1ccccc1OP(C)(=O)Nc1ccc(C)cc1` (stereo unspecified), the growth rescue (activation) entry was “inactive”. As to `Cc1ccc(NP(C)(=O)Oc2ccccc2)c(C)c1` (stereo unspecified), the growth rescue (activation) result was “inactive”. Regarding `CCOC(=O)c1ccc(NP(C)(=O)Oc2ccccc2)cc1` (stereo unspecified), the growth rescue (activation) result was “inactive”.

Consider `CCN(CC)CCCOC(=O)C(O)(c1ccccc1)c1ccccc1`, for which the growth rescue (activation) result was “inactive”. Still for that read-out and setting: as for `COc1ccccc1-c1ccccn1.O=[N+]([O-])c1cc([N+](=O)[O-])c(O)c([N+](=O)[O-])c1`, the entry is “inactive”; as for `CP(=O)(NC(=O)Nc1ccccc1)Oc1ccccc1` (stereo unspecified), “inactive”; as for `CCc1ccc(OP(C)(=O)N2CCN(c3ccc([N+](=O)[O-])cc3)CC2)cc1` (stereo unspecified), “inactive”. Take `CP(=O)(Nc1ccc(SC(F)(F)F)cc1)Oc1ccc(Cl)cc1` (stereo unspecified): the Potency was active: 22.4 µM. In the case of `Cc1cccc(C)c1OP(C)(=O)Nc1ccc(SC(F)(F)F)cc1` (stereo unspecified), the growth rescue (activation) entry is “inactive”.

With `CP(=O)(Oc1ccccc1)OC(c1ccccc1)C(F)(F)F` (stereo unspecified), the growth rescue (activation) result is “inactive”. Still for that read-out and setting: the result for `CP(=O)(Nc1ccccn1)Oc1ccc(Cl)cc1` (stereo unspecified) reads “inactive”; that for `O=[N+]([O-])c1cc([N+](=O)[O-])c(O)c([N+](=O)[O-])c1.c1ccc(Oc2ccncc2)cc1`, “inactive”.

For the compound `CCOC(=O)c1ccc(NP(C)(=O)Oc2ccc(OC)cc2)cc1` (stereo unspecified), the growth rescue (activation) result was “inactive”. In the case of `CCOP(C)(=S)SCC(=O)NC(C)C(=O)O` (stereo unspecified), the growth rescue (activation) entry was “inactive”. As to `CP(=O)(Nc1ccccc1Br)Oc1ccccc1` (stereo unspecified), the growth rescue (activation) entry is “inactive”. For `COc1ccccc1OP(C)(=O)Nc1ccccc1` (stereo unspecified), the growth rescue (activation) entry is “inactive”. Regarding `CP(=S)(Nn1cnnc1)Oc1ccccc1` (stereo unspecified), the growth rescue (activation) entry is “inactive”. Same read-out and setting: the result for `CC1=C2N=C(C=C3N=C(C(C)=C4[N-][C@@](C)([C@@H]5N=C1[C@](C)(CCC(=O)NC[C@@H](C)OP(=O)([O-])O[C@H]1[C@@H](O)[C@@H](n6cnc7cc(C)c(C)cc76)O[C@@H]1CO)[C@H]5CC(N)=O)[C@@](C)(CC(N)=O)[C@@H]4CCC(N)=O)[C@@](C)(CC(N)=O)[C@@H]3CCC(N)=O)C(C)(C)[C@@H]2CCC(N)=O.[C-]#N.[Co+3]` reads “inactive”.

On to `O=[N+]([O-])c1cc([N+](=O)[O-])c(Nc2nnnn2CCO)c([N+](=O)[O-])c1`, for which the growth rescue (activation) result is “inactive”. With `COc1ccc(-c2ccccn2)cc1.O=[N+]([O-])c1cc([N+](=O)[O-])c(O)c([N+](=O)[O-])c1`, the growth rescue (activation) entry was “inactive”.

Regarding `CCCOc1ccc(NP(C)(=O)Oc2ccc(Cl)cc2)cc1` (stereo unspecified), the growth rescue (activation) entry was “inactive”. With `CP(=O)(Nc1ccc(SC(F)(F)F)cc1)Oc1ccccc1` (stereo unspecified), the growth rescue (activation) entry was “inactive”. On to `CN1CCCCC1COC(=O)C1(O)c2ccccc2CCc2ccccc21` (stereo unspecified), for which the growth rescue (activation) entry is “inactive”.

For `COc1ccccc1OP(C)(=O)Nc1c(C)cccc1C` (stereo unspecified), the growth rescue (activation) entry was “inactive”. As to `CN(Cc1cccnc1)C(=O)COc1ccc(Cl)c(Cl)c1.O=[N+]([O-])c1cc([N+](=O)[O-])c(O)c([N+](=O)[O-])c1`, the growth rescue (activation) entry was “inactive”.

`O=[N+]([O-])c1cc([N+](=O)[O-])c(-n2nnc3ccccc32)c([N+](=O)[O-])c1`: the growth rescue (activation) is inactive: -16.4% [at 9.22 µM]. The same measure, in the same setting: as for `Cc1nc2ccc3ccccc3c2s1.O=[N+]([O-])c1cc([N+](=O)[O-])c(O)c([N+](=O)[O-])c1`, the entry is “inactive”; as for `O=[N+]([O-])c1cc([N+](=O)[O-])c(-c2cnn(-c3ccccc3)c2)c([N+](=O)[O-])c1`, “inactive”; as for `CCOC(=O)c1ccc(NP(C)(=O)Oc2cc(C)cc(C)c2)cc1` (stereo unspecified), “inactive”.

For the compound `Cc1cc(C)cc(OP(C)(=O)Nc2ccc(C)cc2C)c1` (stereo unspecified), the growth rescue (activation) result was “inactive”. As to `COc1ccccc1OP(C)(=O)Nc1cccc(Br)c1` (stereo unspecified), the growth rescue (activation) result is “inactive”. As for `Cc1ccc(C)c(NP(C)(=O)Oc2ccccc2)c1` (stereo unspecified), the growth rescue (activation) entry is “inactive”.

In the case of `Cc1cc(C)cc(OP(C)(=O)Nc2ccccn2)c1` (stereo unspecified), the growth rescue (activation) result is “inactive”.

As to `CP(=O)(Nc1cccc(Br)c1)Oc1ccccc1` (stereo unspecified), the growth rescue (activation) was inactive: -15.4% [at 0.397 µM]. For the compound `CC1=NCCc2c1[nH]c1ccccc21.O=[N+]([O-])c1cc([N+](=O)[O-])c(O)c([N+](=O)[O-])c1`, the growth rescue (activation) result was “inactive”.

Take `CCOC(=O)c1ccc(NP(C)(=O)Oc2ccc(F)cc2)cc1` (stereo unspecified): the growth rescue (activation) entry was “inactive”. On to `CP(=O)(Nc1ccccc1)Oc1ccc(F)cc1` (stereo unspecified), for which the growth rescue (activation) entry was “inactive”.

As to `CCCCCOc1ccc(NP(C)(=O)Oc2ccc(Cl)cc2Cl)cc1` (stereo unspecified), the growth rescue (activation) was inactive: -26% [at 1.82 µM].

`CCN(CC)CCCOC(=O)C(O)(c1ccccc1)C1CCCCC1` (stereo unspecified): the growth rescue (activation) result was “inactive”. For the compound `CP(=O)(Nc1ccccc1F)Oc1ccccc1` (stereo unspecified), the growth rescue (activation) result was “inactive”. For the compound `O=C(OCCN1CCN(CCOCc2ccccc2)CC1)C(O)(c1ccccc1)c1ccccc1`, the growth rescue (activation) entry is “inactive”. The same measure, in the same setting: the result for `CCOP(C)(=S)SCC(=O)NC(C)(CC)C(=O)O` (stereo unspecified) reads “inactive”. `CP(=O)(Nc1ccc(SC(F)(F)F)cc1)Oc1ccc(F)cc1` (stereo unspecified): the growth rescue (activation) result was “inactive”.

For `Cc1ccccc1NP(C)(=O)Nc1ccccc1C`, the growth rescue (activation) result was “inactive”. Regarding `O=[N+]([O-])c1cc([N+](=O)[O-])c(C(F)(F)F)c([N+](=O)[O-])c1O`, the growth rescue (activation) entry is “inactive”.

Turning to `CP(=O)(Nc1ccc2c(c1)OCCO2)Oc1ccccc1` (stereo unspecified), the growth rescue (activation) entry was “inactive”. For `CN(C)CCOC(=O)C(O)(c1ccccc1)C1CCCCC1` (stereo unspecified), the growth rescue (activation) entry was “inactive”. The same measure, in the same setting: the result for `COc1ccc(NP(C)(=O)Oc2ccccc2OC)cc1` (stereo unspecified) reads “inactive”; that for `COc1ccc(OP(C)(=O)Nc2cccc(Br)c2)cc1` (stereo unspecified), “inactive”. Same read-out and setting: the result for `Cc1c(C(c2ccc3c(c2)OCO3)c2c(C)n(C)n(-c3ccccc3)c2=O)c(=O)n(-c2ccccc2)n1C.O=[N+]([O-])c1cc([N+](=O)[O-])c(O)c([N+](=O)[O-])c1` reads “inactive”; that for `O=[N+]([O-])c1ccc(OP2(=O)COCCO2)cc1` (stereo unspecified), “inactive”. Consider `Cc1cc(-c2cccc3ccccc23)c(C)cn1.O=[N+]([O-])c1cc([N+](=O)[O-])c(O)c([N+](=O)[O-])c1`, for which the growth rescue (activation) entry is “inactive”. As for `CCOC(=O)c1ccc(NP(C)(=O)Oc2ccc(Cl)cc2)cc1` (stereo unspecified), the growth rescue (activation) entry was “inactive”. The same measure, in the same setting: the result for `CP(=O)(OC12CC3CC(CC(C3)C1)C2)OC12CC3CC(CC(C3)C1)C2` reads “inactive”.

In the case of `Nc1ccc2c(ccc3cccnc32)n1.O=[N+]([O-])c1cc([N+](=O)[O-])c(O)c([N+](=O)[O-])c1`, the growth rescue (activation) result was “inactive”. Still for that read-out and setting: as for `COc1ccccc1OP(C)(=O)Nc1c(C)n(C)n(-c2ccccc2)c1=O` (stereo unspecified), the entry is “inactive”; as for `O=C(OCCCN1CCCC1)C(O)(c1ccccc1)C1CCCCC1` (stereo unspecified), “inactive”. In the case of `CP(=O)(Oc1ccccc1)N1CCOC1=O` (stereo unspecified), the growth rescue (activation) result is “inactive”. On the same count and under the same terms, as for `CCc1ccc(OP(C)(=O)Nc2cccnc2)cc1` (stereo unspecified), the entry is “inactive”; as for `CCN(CC)CC(O)COC(=O)C(O)(c1ccccc1)C1CCCCC1` (stereo unspecified), “inactive”; as for `COc1ccc(OP(C)(=O)Nc2ccc(Br)cc2)cc1` (stereo unspecified), “inactive”. Turning to `CN(C)C(=O)c1c([N+](=O)[O-])cc([N+](=O)[O-])cc1[N+](=O)[O-]`, the growth rescue (activation) result was “inactive”.

`COc1ccccc1OP(C)(=O)Nc1ccccc1Br` (stereo unspecified): the growth rescue (activation) result is “inactive”.

Take `CC(C)(C)c1ccc(OP(C)(=O)O)cc1`: the growth rescue (activation) result was “inactive”.

As to `CP(=O)(Nc1ccc(Cl)cc1)Oc1ccc(F)cc1` (stereo unspecified), the growth rescue (activation) entry was “inactive”. Turning to `COc1ccc(OP(C)(=O)Nc2ccccn2)cc1` (stereo unspecified), the growth rescue (activation) result was “inactive”.

`CN(C)CCOC(=O)C(O)(c1ccccc1)C1CCCC1` (stereo unspecified): the growth rescue (activation) result was “inactive”.

On to `COc1ccccc1OP(C)(=O)Nc1ccc(Br)cc1` (stereo unspecified), for which the growth rescue (activation) result was “inactive”. For `CP(=O)(Nc1ccccn1)Oc1ccccc1` (stereo unspecified), the growth rescue (activation) entry was “inactive”.

`COc1ccccc1OP(C)(=O)Nc1ccc(C)cc1C` (stereo unspecified): the growth rescue (activation) result is “inactive”. Take `CCc1ccc(OP(C)(=O)O)cc1`: the growth rescue (activation) result was “inactive”. For the compound `Cc1c(NP(C)(=O)Oc2ccc(C(C)C)cc2)c(=O)n(-c2ccccc2)n1C` (stereo unspecified), the growth rescue (activation) result was “inactive”.

For the compound `O=[N+]([O-])c1cc([N+](=O)[O-])c(Nc2ccccn2)c([N+](=O)[O-])c1`, the Potency was active: 12.6 µM. As to `COc1ccccc1OP(C)(=O)Nc1ccc(C)c(C)c1` (stereo unspecified), the growth rescue (activation) result is “inactive”.

Take `COc1ccc(OP(C)(=O)Nc2ccccc2Br)cc1` (stereo unspecified): the growth rescue (activation) entry was “inactive”. For `Cc1cc(C)cc(OP(C)(=O)Nc2cccc(C(F)(F)F)c2)c1` (stereo unspecified), the growth rescue (activation) entry is “inactive”.

Consider `CP(=O)(Nc1ccc(Cl)cc1Cl)Oc1ccccc1` (stereo unspecified), for which the growth rescue (activation) entry was “inactive”. `CCCCCCCCCCCCCCCC1C[N+](C)(C)CCOP(C)(=O)O1` (stereo unspecified): the growth rescue (activation) result was “inactive”. For the compound `CP(=O)(OCCOc1ccccc1)OCCOc1ccccc1`, the growth rescue (activation) result was “inactive”.
